## Binding of CDR-mutated scFvs to a peptide of the spike HR2 region

Source: Engelhart et al. 2022 (doi:10.1038/s41597-022-01779-4), MIT Lincoln Laboratory and A-Alpha Bio; data file from the FLAb repository.

Antigen: PDVDLGDISGINAS, a 14-residue peptide of the SARS-CoV-2 spike HR2 region.

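Phage display of a naive human antibody library on the peptide gave the parent. In library AAYL51, one, two or three CDR residues were substituted; doubles and triples were drawn at random. In AlphaSeq, yeast of one mating type display the scFv and yeast of the other type display the target. Mating (16 h, 30 °C) was followed by selection of diploids and sequencing of their barcodes. Scores were corrected for input abundance and mapped to Kd with protein pairs of known affinity run in the same pool. The assay was run in three technical replicates.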

Each scFv is VL, three GGGGS repeats, VH, as in the parent Ab-91, and differs from it in the CDRs of the heavy chain only.
VL: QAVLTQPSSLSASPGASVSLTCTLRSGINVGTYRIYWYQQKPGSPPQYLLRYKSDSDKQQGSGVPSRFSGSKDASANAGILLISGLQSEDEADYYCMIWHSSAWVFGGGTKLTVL
VH: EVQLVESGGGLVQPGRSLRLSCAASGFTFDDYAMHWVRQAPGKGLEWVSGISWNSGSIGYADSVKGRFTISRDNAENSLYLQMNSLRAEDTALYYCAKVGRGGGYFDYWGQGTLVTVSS

Positions count from residue 1 of the parent VH; F27E puts E in place of F.
Every variant below is changed at F27 of the VH (sequential numbering).
Values are apparent Kd, the geometric mean of the replicates that gave a signal; lower means stronger binding.
Where no diploid with the target was found in any replicate, the entry reads "nd": below detection, most likely a poor binder, though not proof of it.
Empty control strains, which show no peptide, gave a signal in 21% of pairings with library AAYL51; the median was 34 µM and 95% of these signals were weaker than 1.8 µM. No background was subtracted. Also given: how often the same scFv was detected with the empty control strains.
Parent in this assay: reference entry 72 nM, copy in this library 7.5 nM.

* F27E/K65W/G102Y -> 37 µM (3 of 3 replicates; controls 2 of 9)
* F27W/N54V -> 11 µM (2 of 3 replicates; controls 5 of 9)
* F27Y/V99L/G100V -> nd (0 of 3 replicates; controls 1 of 9)
* F27T/A61K/S63E -> 80 µM (2 of 3 replicates; controls 3 of 9)
* F27M/G100T/D107H -> 8.4 µM (1 of 3 replicates; controls 0 of 9)
* F27K/D31I/A33Y -> 160 µM (2 of 3 replicates; controls 5 of 9)
* F27I/G102E/F106R -> 17 µM (3 of 3 replicates; controls 4 of 9)
* G26D/F27P -> 36 nM (3 of 3 replicates; controls 2 of 9)
* G26T/F27A/A33L -> 36 µM (1 of 3 replicates; controls 2 of 9)
* F27M/D30F/Y60P -> 680 nM (1 of 3 replicates; controls 2 of 9)
* F27V/W53A/V64I -> 9.8 nM (3 of 3 replicates; controls 0 of 9)
* F27G/W53T -> 700 nM (3 of 3 replicates; controls 4 of 9)
* F27V/V64C/Y105W -> nd (0 of 3 replicates; controls 2 of 9)
* F27T/S55M/S57D -> nd (0 of 3 replicates; controls 1 of 9)
* F27G/A33Q/H35N -> 12 µM (1 of 3 replicates; controls 1 of 9)
* F27G/G102N/Y108G -> 4.8 µM (2 of 3 replicates; controls 4 of 9)
* F27C/G104N -> nd (0 of 3 replicates; controls 2 of 9)
* F27Q/D30L/I58L -> nd (0 of 3 replicates; controls 2 of 9)
* F27C/A33W/M34V -> nd (0 of 3 replicates; controls 2 of 9)
* F27Y/V64M/Y108N -> 290 nM (3 of 3 replicates; controls 3 of 9)
* F27A/V64D/Y108V -> nd (0 of 3 replicates; controls 0 of 9)
* F27I/G103E/Y105A -> 54 µM (3 of 3 replicates; controls 5 of 9)
* F27S/H35S/G102A -> nd (0 of 3 replicates; controls 0 of 9)
* F27M/G50S -> 250 µM (1 of 3 replicates; controls 4 of 9)
* F27S/Y32Q/G50F -> 42 µM (2 of 3 replicates; controls 2 of 9)
* F27R/V99F -> 23 µM (2 of 3 replicates; controls 1 of 9)
* F27H/Y105M/F106I -> 110 µM (2 of 3 replicates; controls 2 of 9)
* F27A/M34H/G100V -> nd (0 of 3 replicates; controls 2 of 9)
* F27D/D31M/G102Y -> nd (0 of 3 replicates; controls 0 of 9)
* F27E/G59S/D62G -> nd (0 of 3 replicates; controls 1 of 9)
* F27T/T28Y/D31M -> 320 nM (3 of 3 replicates; controls 4 of 9)
* F27K/T28N/D62F -> 19 µM (1 of 3 replicates; controls 5 of 9)
* F27Y/F29W/F106V -> nd (0 of 3 replicates; controls 6 of 9)
* F27L/S57V/I58K -> 2.6 µM (2 of 3 replicates; controls 6 of 9)
* F27M/G59V/F106N -> 220 µM (1 of 3 replicates; controls 3 of 9)
* F27L/G56C -> 6.2 µM (2 of 3 replicates; controls 3 of 9)
* F27Y/T28E/A61P -> 97 µM (1 of 3 replicates; controls 1 of 9)
* F27Y/K65L/V99K -> nd (0 of 3 replicates; controls 1 of 9)
* F27V/W53F/F106Q -> nd (0 of 3 replicates; controls 0 of 9)
* F27Y/T28Q/V64C -> nd (0 of 3 replicates; controls 0 of 9)
* G26Y/F27V/G103I -> nd (0 of 3 replicates; controls 0 of 9)

Top 6 of the variants detected in all replicates, tightest first:

| changes | Kd (apparent) | detected | empty controls |
|---|---|---|---|
| F27V/W53A/V64I | 9.8 nM | 3/3 | 0/9 |
| G26D/F27P | 36 nM | 3/3 | 2/9 |
| F27Y/V64M/Y108N | 290 nM | 3/3 | 3/9 |
| F27T/T28Y/D31M | 320 nM | 3/3 | 4/9 |
| F27G/W53T | 700 nM | 3/3 | 4/9 |
| F27I/G102E/F106R | 17 µM | 3/3 | 4/9 |